Test results from ChEMBL document CHEMBL1153420, “Discovery of novel 1-azoniabicyclo[2.2.2]octane muscarinic acetylcholine receptor antagonists” (J Med Chem, 2009).

Protein sequences, listed by entry. Tags and fused reporters are not part of them.
UniProt P20309, whole entry: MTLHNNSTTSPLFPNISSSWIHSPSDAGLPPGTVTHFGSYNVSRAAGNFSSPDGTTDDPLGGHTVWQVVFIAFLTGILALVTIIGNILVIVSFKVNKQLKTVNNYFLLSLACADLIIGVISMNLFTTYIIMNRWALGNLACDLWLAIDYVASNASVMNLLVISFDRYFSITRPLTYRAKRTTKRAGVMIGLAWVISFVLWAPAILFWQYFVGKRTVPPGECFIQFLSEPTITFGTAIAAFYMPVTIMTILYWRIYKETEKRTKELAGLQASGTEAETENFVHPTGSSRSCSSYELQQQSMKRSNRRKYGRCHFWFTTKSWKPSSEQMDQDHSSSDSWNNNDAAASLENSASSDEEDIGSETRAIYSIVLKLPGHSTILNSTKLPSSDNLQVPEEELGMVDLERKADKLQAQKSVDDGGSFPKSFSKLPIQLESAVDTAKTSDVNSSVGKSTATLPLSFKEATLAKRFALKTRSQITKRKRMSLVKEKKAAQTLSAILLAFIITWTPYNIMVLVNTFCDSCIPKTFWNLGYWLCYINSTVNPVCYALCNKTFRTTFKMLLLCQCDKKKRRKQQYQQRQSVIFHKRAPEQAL

Key:
[1] = biological target: T1, Muscarinic acetylcholine receptor M3 (Homo sapiens, UniProt P20309); experiment: Antagonist activity at human cloned muscarinic M3 receptor expressed in CHO cells assessed as inhibition of acetylcholine-induced calcium mobilization by FLIPR assay; format: functional, cell-based
[2] = biological target: T1, Muscarinic acetylcholine receptor M3; experiment: Antagonist activity at human cloned muscarinic M3 receptor expressed in CHO cells assessed as inhibition of acetylcholine-induced calcium mobilization by single concentration kinetic based-FLIPR assay; format: functional, cell-based; settings: read-out: pA2 (converted)
Method in brief: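 Human M3 receptor expressed in CHO cells; compounds tested against a single acetylcholine concentration with calcium mobilization read by FLIPR to give IC50; values are means of two or more independent assays.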

[3] = biological target: T1, Muscarinic acetylcholine receptor M3; experiment: Antagonist activity at human muscarinic M3 receptor assessed as inhibition of carbachol-induced bronchus contraction; format: functional; settings: read-out: pA2 (converted)
Method in brief: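 Human bronchial strips from primary, secondary or tertiary airways obtained at autopsy, mounted on force-displacement transducers in organ baths; preincubated 2 h with compound, then challenged with increasing carbachol concentrations; potency expressed against carbachol-induced contraction.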

[4] = biological target: T1, Muscarinic acetylcholine receptor M3; experiment: Displacement of [3H]N-methyl scopolamine from human cloned muscarinic M3 receptor expressed in CHO cells coexpressing Gqi5 by scintillation proximity assay; format: cell-based
Method in brief: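 Scintillation proximity assay on membranes from CHO cells expressing human M1, M2 or M3 receptors, competing against 0.5 nM [3H]-N-methyl scopolamine; Ki reported as mean of three independent assays.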

`OC(c1ccccc1)(c1ccccc1)C12CC[N+](CCOCc3ccccc3)(CC1)CC2.[Br-]` [UMECLIDINIUM BROMIDE] was tested, and the IC50 [1] was < 10 nM, the Kb [2] was 0.0316 nM and the Kb [3] was 0.316 nM. The Ki [4] was 0.06 nM.
